Assay [1] can be described thus: Cytotoxicity against human ALL3 cells. Type of assay: functional, cell-based.
The nature of assay [2]: Cytotoxicity against human CWR22 cells. It counts as functional, cell-based.
Assay [3] has as its target T1, Peptide deformylase (Escherichia coli, UniProt Q9JN24).
T1 sequence (Q9JN24 whole entry): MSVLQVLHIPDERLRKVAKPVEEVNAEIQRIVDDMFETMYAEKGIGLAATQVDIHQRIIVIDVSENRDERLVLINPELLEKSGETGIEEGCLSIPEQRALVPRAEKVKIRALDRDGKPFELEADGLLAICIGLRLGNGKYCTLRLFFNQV
Description: Inhibition of Escherichia coli peptide deformylase after 1 hr by fluorescence polarization based competition assay.

In the case of `COc1ccc(C(=O)c2coc3c2C(=O)C(=O)C(Cl)=C3Cl)cc1OC`, the figures for the IC50 in assay [1], in assay [2] and in assay [3] were 69 µM, 68 µM and 67 µM, respectively.

As a reminder, the IC50 is the point on the concentration scale where inhibition reaches its midpoint. A low value points to higher potency.

These data come from ChEMBL document CHEMBL1806384, “Identification of benzofuran-4,5-diones as novel and selective non-hydroxamic acid, non-peptidomimetic based inhibitors of human peptide deformylase” (Bioorg Med Chem Lett, 2011).
